The results in this text go back to patent US9364501B2, “Chlorite in the treatment of neurodegenerative disease” (The Regents of the University of California, priority 2004, dated 2016).

Structures are written as SMILES.

For experiment [1], the system named is blood T-cell subsets and CD14 monocytes of ALS patients.
In experiment [2] the test system is serum IgG and IgM.
Setting [3] is: blood of ALS patients on medication, mean ± SD.
Where [4] appears, read: ALS patients on medication, mean ± SD.

Regarding `Nc1nc2ccc(OC(F)(F)F)cc2s1` [riluzole], in experiment [1] (CD14 co-expression of HLA-DR, ALS/sALS patients on medication), the “Macrophage activation status in treated ALS patients, in words” value is given as “not improved”. Further, in experiment [1] (setting [3]), the “% CD4” value is given as 46.10 ± 7.45%, the “% CD4CD38” value came to 27.88 ± 10.76%, the “% CD8” value worked out at 20.20 ± 7.69% and the “% CD8CD38” value is recorded as 13.20 ± 9.62%. For the same compound, in experiment [1] (setting [3]), the “% CD14” value is 2.28 ± 1.22%, the “% CD14CD16” value was found to be 44.22 ± 12.91%, the “CD14 SSC” value came out at 457.4 ± 153.2 and the “Med CD4CD38 (median CD38 fluorescence expressed on CD4 T-cell)” value was determined as 12.76 ± 12.62. Also, the “Med CD8CD38 (median CD38 fluorescence expressed on CD8 T-cell)” value in experiment [1] (setting [3]) came out at 4.90 ± 8.55. For the same compound, the CD4/CD8 in experiment [1] (blood of ALS patients on medication, riluzole 50 mg twice daily, NSAIDS standard dose, mean ± SD) is 2.77 ± 1.54. Also, in experiment [2] (setting [4]), the Serum-IgG was 7.90 ± 4.58 mg/mL and the Serum-IgM was 2.78 ± 3.03 mg/mL. For the same compound, the “Serum-IgM levels, effect of therapy in words” value in experiment [2] (ALS patients, treatment categories compared) is “no different from untreated patients”.
